Values quoted from earlier work, collected in patent publication US20260014261A1, “TARGETED PROTEIN MODIFICATION” (Weatherwax Biotechnologies Corporation, priority 2022, published 2026).

Sequences of proteins named here, by UniProt entry; tags and fusion partners are left off. Residues count along the entry.
UniProt P40337, 54-213 limits assumed: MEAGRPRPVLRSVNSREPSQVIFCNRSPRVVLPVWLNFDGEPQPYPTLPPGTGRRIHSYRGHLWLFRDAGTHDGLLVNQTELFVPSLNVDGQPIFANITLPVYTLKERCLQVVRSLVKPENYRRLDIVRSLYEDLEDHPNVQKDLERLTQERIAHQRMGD
UniProt Q15369, 17-112 partner limits assumed: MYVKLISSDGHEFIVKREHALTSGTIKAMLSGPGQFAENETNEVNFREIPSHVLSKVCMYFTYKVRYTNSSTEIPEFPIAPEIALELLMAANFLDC
UniProt Q15370, 1-104 partner limits assumed: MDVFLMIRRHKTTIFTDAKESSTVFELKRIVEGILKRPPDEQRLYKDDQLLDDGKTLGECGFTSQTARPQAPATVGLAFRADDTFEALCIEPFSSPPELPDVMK

Target: VHL (Homo sapiens, UniProt P40337)
Conditions: read-out: binding affinity (Kd) for VHL

Compound: Cc1ncsc1-c1ccc(CNC(=O)[C@@H]2C[C@@H](O)CN2C(=O)[C@@H](N)C(C)(C)C)cc1
- Kd: 50 nM
